# AlphaSeq binding of Ab-14 light chain variants to a spike HR2 peptide

All variants were tested on one target, the spike HR2 peptide PDVDLGDISGINAS (SARS-CoV-2).

The variants keep the heavy chain, the linker and the frameworks of Ab-14 (scFv order VH, a (GGGGS)3 linker, VL).
VH: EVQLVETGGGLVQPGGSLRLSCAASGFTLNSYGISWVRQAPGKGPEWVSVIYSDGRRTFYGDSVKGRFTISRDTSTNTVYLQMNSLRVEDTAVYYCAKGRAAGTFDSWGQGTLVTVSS
VL: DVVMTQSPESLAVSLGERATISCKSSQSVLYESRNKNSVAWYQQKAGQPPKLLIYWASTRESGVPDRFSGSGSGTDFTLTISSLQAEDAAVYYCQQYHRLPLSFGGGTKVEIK

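The parent was found by panning a naive human phage display library on the peptide. These sequences belong to a second round, designed from the earlier measurements on random variants of the parent. Several design methods are mixed in this list. AlphaSeq pools MATa yeast showing the antibodies with MATalpha yeast showing the peptide. Binding brings cells together so that they mate, and sequencing counts the barcode pairs among the diploids. The ratio of observed to expected reads was calibrated, replicate by replicate, on BCL2-family standards whose Kd was known from biolayer interferometry. Mating was done six times.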

Variants are written as CDR1, CDR2 and CDR3 of the light chain (limits as in the source). Parent: KSSQSVLYESRNKNSVA, WASTRES, QQYHRLPLS.
This list holds designs with more than six substitutions.
Each Kd is an estimate from the mating assay, the geometric mean of the replicates in which the pair was seen; lower is stronger.
"nd" marks a missing value. The strain was present, yet no cells mated with the target were sequenced in any replicate, which points to weak or no binding.
The authors' rule: three or more of the six replicates give a measured affinity, fewer mean a poor binder.
The parent sequence was in this pool as ten entries: three were never detected, three once, and four in most replicates, with averages from 2.2 nM to 240 nM.
Values of this round are not directly comparable with the first-round values of the same sequences.
Nonspecific signal, from three strains lacking the peptide, appeared in 4% of pairings of all light chain designs, centred on 430 nM (5% of these signals below 38 nM); values are not corrected for it.

* KIELDLTRYNAGYAAIA / HETMKAQ / QQYSRLPLI = 15 nM (6 of 6 replicates)
* KVTTNLEHQADRDNSIA / EADMVAA / QDYMRLPLI = 160 nM (5 of 6 replicates)
* TIGPMLMTESRNKNSVA / GMQTRER / QQYNRLPLS = 2.8 nM (6 of 6 replicates)
* KLSQSVEQLSRNKNSVA / HASQREV / QAYHRLPLS = 1.6 nM (6 of 6 replicates)
* KLSMVTGHMSMSRNNVA / EMVTREP / QQYDRLPLS = 3.1 nM (6 of 6 replicates)
* RLRELNFYSGNARNNIA / DAHIHEV / QQYSQLPLF = 1.5 nM (6 of 6 replicates)
* RFSQRVLYYSRNKNSVA / WASVRES / QQYSDLPLS = 50 nM (5 of 6 replicates)
* KISMATTFESRNKNSVA / ENSTRES / QSYHRLPLS = 210 nM (6 of 6 replicates)
* KISQMVRVGSTVSNSIA / EEVTRMK / QQYHRLPLA = 3.8 nM (6 of 6 replicates)
* KFSASLYRSGSEASSVA / EAEEVRQ / QHYNRLPLG = nd (0 of 6 replicates)
* KIGMTLNSLMHKKNNVA / DLVERAN / QQYFRLPLS = 3.2 nM (6 of 6 replicates)
* MMSQVTGQGQRHRNNVA / QTSTREP / QQYDRLPLI = 13 nM (6 of 6 replicates)
* KMSQSAPMESRNANSVA / NASTREE / QQYHRLPLS = 1.7 nM (6 of 6 replicates)
* IVSQLMLWGMKARNSIA / EAVTRLN / QQYDRLPLF = nd (0 of 6 replicates)
* IIDQIMYHGNKSANSIA / QASERLN / QQYHHLPLI = 110 nM (6 of 6 replicates)
* IVSQLMIWGMHAKNSIA / EAETRFN / QQYDRLPLF = nd (0 of 6 replicates)
* KVSEFMRGLMSRKDSIA / DNETRES / QQYDRLPLS = 120 nM (5 of 6 replicates)
* KITATMRFEQKISNNIA / EVTLRSK / QQYYRLPLS = 9.7 nM (6 of 6 replicates)
* KLSQSVLYQMEQKNSVA / QASTRMS / QMYHRLPLS = 62 nM (5 of 6 replicates)
* HITYGMYVSGRYKSNIA / QAETREK / QQYDRLPLM = 5.5 nM (6 of 6 replicates)
* MISQVLNTLTKEGNNVA / DLAERED / QQYFRLPLS = 4.3 nM (6 of 6 replicates)
* KLQMMVEMESRNKNSVA / SASTRLS / QQYHRLPLS = 750 pM (6 of 6 replicates)
* TLSDLTYMESRNVNSVA / DLVKRES / QQYHRLPLS = 2.2 nM (6 of 6 replicates)
* MMSQVTGMGSRQRNNVA / QTSTREP / QQYDRLPLV = 6.7 nM (6 of 6 replicates)
* RLYNQGTDQIQHAQSIA / DRDEVDS / QQYAHLPLS = 13 nM (6 of 6 replicates)
* KISQSVNVGSKNKNSLA / EMSTREF / QDYHRLPLS = 120 nM (5 of 6 replicates)
* KLSVSNLFEQLEKNSIA / ENSTREK / QHYHRLPLS = nd (0 of 6 replicates)
* KIGMTLNQLMHKKNNVA / DLVMREN / QQYFRLPLS = 12 nM (6 of 6 replicates)
* KIMQSLNYEQFTVSNVA / GQETRER / QSYHRLPLS = 76 nM (6 of 6 replicates)
* TISQMTSWMSNKKANVA / EVSTREK / QQYDRLPLS = 2.9 nM (6 of 6 replicates)
* SLSELYAGWDAANKSIA / ASILMME / QQYHRLPLA = 160 nM (5 of 6 replicates)

From the AlphaSeq antibody data of Li et al. 2023 (doi:10.1038/s41467-023-39022-2), copy in the FLAb collection.